Experimental data taken from publication PMC9005681, “Use of AD Informer Set compounds to explore validity of novel targets in Alzheimer's disease pathology” (Alzheimer's & Dementia : Translational Research & Clinical …, 2022).

Sequences of proteins named here, by UniProt entry; tags and fusion partners are left off.
UniProt P35367, whole entry: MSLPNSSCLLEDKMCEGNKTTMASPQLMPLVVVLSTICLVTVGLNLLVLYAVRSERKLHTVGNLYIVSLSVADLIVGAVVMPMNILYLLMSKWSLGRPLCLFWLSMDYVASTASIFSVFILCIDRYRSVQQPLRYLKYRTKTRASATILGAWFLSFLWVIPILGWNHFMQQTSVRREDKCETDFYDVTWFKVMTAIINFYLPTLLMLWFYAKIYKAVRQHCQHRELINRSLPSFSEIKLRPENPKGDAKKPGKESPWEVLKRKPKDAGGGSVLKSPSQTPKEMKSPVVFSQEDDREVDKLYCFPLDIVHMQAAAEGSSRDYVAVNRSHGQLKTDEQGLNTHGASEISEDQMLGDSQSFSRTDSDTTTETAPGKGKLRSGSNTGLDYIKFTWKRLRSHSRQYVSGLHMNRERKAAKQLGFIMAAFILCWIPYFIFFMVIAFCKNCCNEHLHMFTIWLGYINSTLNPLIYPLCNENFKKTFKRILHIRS

Experiments:
H1 receptor = biological target: T1, H1 receptor (Homo sapiens, UniProt P35367); assay: PDSP secondary binding, H1; design: species or system human or rodent; conditions: secondary assay
T1 construct: expressed in transfected cells
Protocol: GPCR panel: Screening against the receptors within the PDSP panel offers an assessment of off-target pharmacological activity at cloned human or rodent CNS receptors, channels, and transporters that could confound CNS-related phenotypes. A total of 46–47 primary binding assays were run in quadruplicate on these compounds at 10 μM, with follow-up secondary binding assays in 11-point dose-response in triplicate for select compounds versus select receptors. Secondary binding assays were executed for all receptors where test compound displaced an average of >50% of radio-labeled standard ligand. As an exception, no secondary assays were carried out for H3, PBR, or GABAA. […]

[1] = Plasma plus brain concentrations at 1 h after IV dose; format: in vivo; conditions: CD1 mice, IV 10 mg/kg
Protocol: Compounds with acceptable PK were dosed IV at 10 mg/kg and plasma plus brain
concentrations measured at 1h in CD1 mice (3 mice per cohort, Table 2). […]

[2] = mouse, IV, 3.0 mg/kg, published PK values; cited from earlier work

MDL 28170 [UNC10302675A]
Ki (H1 receptor; run 1): > 10000 nM | LogKi 1 (H1 receptor; run 1, log Ki given with negative sign): > -5 | Brain: plasma at 1 hour (10 mg/kg) [1]: 0.10 | CL [2]: 41.8 mL/min/kg | T1/2 [2]: 44.4 min | Vss [2]: 1.23 L/kg
